Laboratory results published in ChEMBL document CHEMBL1154110, “Identification, structure-activity relationships and molecular modeling of potent triamine and piperazine opioid ligands” (Bioorg Med Chem, 2009).

Sequences of proteins named here, by UniProt entry; tags and fusion partners are left off. A change or cut given only in a name is not applied to a line headed by its entry.
UniProt P41144: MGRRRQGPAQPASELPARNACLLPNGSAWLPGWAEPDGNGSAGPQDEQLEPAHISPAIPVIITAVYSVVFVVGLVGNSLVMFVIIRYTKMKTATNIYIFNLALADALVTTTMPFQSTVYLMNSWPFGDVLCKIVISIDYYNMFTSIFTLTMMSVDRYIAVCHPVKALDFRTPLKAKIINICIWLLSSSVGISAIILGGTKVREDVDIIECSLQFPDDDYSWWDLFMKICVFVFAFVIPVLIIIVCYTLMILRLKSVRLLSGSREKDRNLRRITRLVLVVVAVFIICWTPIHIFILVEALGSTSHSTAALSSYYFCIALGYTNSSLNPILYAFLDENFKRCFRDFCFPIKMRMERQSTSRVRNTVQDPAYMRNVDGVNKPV

Target: Kappa-type opioid receptor (Cavia porcellus, UniProt P41144)
Experiment: Displacement of [3H]U69593 from guinea pig kappa opioid receptor by liquid scintillation counting
Outline: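 Receptor membrane suspension incubated with 3 nM [3H]U69,593 as the tritiated competitor. Unlabeled U50,488 served as the kappa standard: it generated a standard curve on every plate and defined nonspecific binding. IC50 values came from dose-response testing.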

Work on `CCC[C@H](CN[C@H](CNC)Cc1ccc(O)cc1)NCC1CCCCCC1` yielded an IC50 of 25 nM.
